Key:
[1] = test system: Folylpolyglutamate synthetase (Sus scrofa); test: Substrate selectivity for hog liver Folyl-polyglutamate synthase was assessed from Vm
[2] = Ratio of Vm and Km values, a measure of Substrate selectivity for hog liver folyl-poly-glutamate synthetase

## Nc1nc(O)c2c(ccc3ccc(CNc4ccc(C(=O)N[C@@H](CCC(=O)O)C(=O)O)cc4)cc32)n1
[1]
  Vm: 66%
[2]
  Ratio: 2.7

Reference: ChEMBL document CHEMBL1127675, “Benzo[f]quinazoline inhibitors of thymidylate synthase: methyleneamino-linked aroylglutamate derivatives” (J Med Chem, 1994)
